Source: article PMC10681007, “Targeted Degradation of XIAP is Sufficient and Specific to Induce Apoptosis in MYCN-overexpressing High-risk Neuroblastoma” (Cancer Research Communications, 2023)

Sequences of proteins named here, by UniProt entry; tags and fusion partners are left off.
UniProt P98170, whole entry: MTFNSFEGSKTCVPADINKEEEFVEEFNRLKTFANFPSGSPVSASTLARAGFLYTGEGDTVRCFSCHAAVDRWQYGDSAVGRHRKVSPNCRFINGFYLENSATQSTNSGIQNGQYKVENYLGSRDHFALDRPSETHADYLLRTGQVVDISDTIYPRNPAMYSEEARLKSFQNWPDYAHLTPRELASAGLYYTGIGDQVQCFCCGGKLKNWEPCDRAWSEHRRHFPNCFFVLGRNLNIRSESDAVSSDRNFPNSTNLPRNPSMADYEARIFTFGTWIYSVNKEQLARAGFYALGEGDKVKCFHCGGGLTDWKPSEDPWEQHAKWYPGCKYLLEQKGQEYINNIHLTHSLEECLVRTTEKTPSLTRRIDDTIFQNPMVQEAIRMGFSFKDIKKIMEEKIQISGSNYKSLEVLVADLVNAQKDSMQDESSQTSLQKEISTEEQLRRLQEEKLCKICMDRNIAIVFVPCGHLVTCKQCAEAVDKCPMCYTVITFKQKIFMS

Tests used:
[1] = tested on: NBL16-0118 patient-derived neuroblastoma cells; assay: RealTime-Glo MT cell viability assay; format: cell-based, Human
BE(2)-C = assay: RealTime-Glo MT cell viability assay; format: cell-based, Human
[2] = tested on: NBL-07-0317 patient-derived neuroblastoma cells; assay: RealTime-Glo MT cell viability assay; format: cell-based, Human
[3] = tested on: NBL01-1116 patient-derived neuroblastoma cells; assay: RealTime-Glo MT cell viability assay; format: cell-based, Human
CHP212 = assay: RealTime-Glo MT cell viability assay; format: cell-based, Human
NB1 = assay: RealTime-Glo MT cell viability assay; format: cell-based, Human
SK-N-AS = assay: RealTime-Glo MT cell viability assay; format: cell-based, Human
[4] = tested on: NBL27-0218A patient-derived neuroblastoma cells; assay: RealTime-Glo MT cell viability assay; format: cell-based, Human
IMR-32 = assay: RealTime-Glo MT cell viability assay; format: cell-based, Human
KELLY = assay: RealTime-Glo MT cell viability assay; format: cell-based, Human
SK-N-SH = assay: RealTime-Glo MT cell viability assay; format: cell-based, Human
NLF = assay: RealTime-Glo MT cell viability assay; format: cell-based, Human
XIAP = XIAP (Homo sapiens, UniProt P98170); assay: NMR 1H-15N-HSQC of XIAP with A4; settings: chemical shift perturbations, absence or presence of A4
Procedure: Uniformly ^13C,^15N-labeled XIAP of 0.8–1.0 mmol/L concentration was used for nuclear magnetic resonance (NMR) studies. NMR experiments were carried out at 298 K (25°C) on a Bruker Avance spectrometer with a proton frequency of 600 or 700 MHz and equipped with a cryoprobe. Sequence-specific assignment was obtained on the basis of the following experiments including ^1H-^15N-HSQC, HNCA, HNCACB, HN(CO)CA, HN(CO)CACB, and HNCO. Spectra were acquired using standard pulses from Topspin (version 2.1). To determine XIAP interaction with small molecule A4, ^1H-^15N-HSQC experiment was performed using 50 mmol/L of A4 compound dissolved in DMSO and 0.5 mmol/L of ^15N-labeled XIAP. The ^1H-^15N-HSQC spectra of XIAP in the absence and presence of different amounts of A4 compounds were acquired, processed, and analyzed. The collected data were processed with NMRPipe ([23]) and analyzed with NMRView ([24]).
To better understand the mechanisms by which these compounds target XIAP in high-risk neuroblastoma, binding interactions between the antagonists and XIAP were first determined in BE(2)-C and KELLY cells using a NanoBRET quantitative target engagement assay. […]

[5] = Body weight and tolerability in PDX mice
Procedure: Tumor samples collected from neuroblastoma PDXs were infected with luciferase lentivirus. Tumor analysis was performed by intraperitoneal injection of D-luciferin solution (150 mg/kg; PerkinElmer) into the mice and imaged with an IVIS spectrum. Bioluminescent signals were then quantified using Living Imaging 4.4 (Caliper Life Sciences). After 4 weeks of tumor implantation into retroperitoneal space of mice, tumor-bearing mice were randomly assigned to receive either vehicle (DMSO; 1 mL/kg) or XIAP-specific antagonist A4 (10 mg/kg; n = 9 per group). All agents were administered by intraperitoneal injection twice weekly for consecutive 3 weeks. General health state of the mice were monitored weekly and were euthanized upon reaching humane endpoints. Survival data were recorded and Kaplan–Meier curves were plotted using GraphPad Prism software.
(A-B) Immunoblot analysis of XIAP, cleaved PARP and cleaved caspase-3 expression in tumors harvested from treated neuroblastoma PDXs. Neuroblastoma PDXs were treated with 10 mg/kg A4 via intraperitoneal injection. Tumors were harvested over the following time courses of 0, 0.5, 1, 2, 4, 24 and 48 hours post-dosing. β-actin is used as internal control. (C) Average weight of vehicle-or A4-treated mice over the course of treatment.

COC(=O)c1[nH]c2ccc(Cl)cc2c1NC(=O)CN1CCN(Cc2ccccc2)CC1
IC50 ([1]; NBL16-0118, 24 hours): 2 µM | IC50 ([1]; NBL16-0118, 48 hours): 2.2 µM | IC50 ([1]; NBL16-0118, 72 hours): 2.4 µM | IC50 (BE(2)-C; 24 hours): 5.9 µM | IC50 (BE(2)-C; 48 hours): 4.5 µM | IC50 (BE(2)-C; 72 hours): 3.7 µM | IC50 ([2]; NBL-07-0317, 24 hours): 14.2 µM | IC50 ([2]; NBL-07-0317, 48 hours): 15.4 µM | IC50 ([2]; NBL-07-0317, 72 hours): 15.7 µM | IC50 ([3]; NBL01-1116, 24 hours): 19.8 µM | IC50 ([3]; NBL01-1116, 48 hours): 19.6 µM | IC50 ([3]; NBL01-1116, 72 hours): 20.3 µM | IC50 (CHP212; CHP212, 48 hours): 7.7 µM | IC50 (CHP212; CHP212, 72 hours): 7.5 µM | IC50 (NB1; NB1, 24 hours): 9.2 µM | IC50 (NB1; NB1, 48 hours): 5.3 µM | IC50 (NB1; NB1, 72 hours): 4.6 µM | IC50 (SK-N-AS; 24 hours): 3.5 µM | IC50 (SK-N-AS; 48 hours): 5.2 µM | IC50 (SK-N-AS; 72 hours): 4.7 µM | IC50 ([4]; 24 hours): 5.9 µM | IC50 ([4]; 48 hours): 7 µM | IC50 ([4]; 72 hours): 8.5 µM | IC50 (IMR-32; IMR-32, 24 hours): 11.9 µM | IC50 (IMR-32; IMR-32, 48 hours): 7.9 µM | IC50 (IMR-32; IMR-32, 72 hours): 6.5 µM | IC50 (KELLY; 24 hours): 4.8 µM | IC50 (KELLY; 48 hours): 3.9 µM | IC50 (KELLY; 72 hours): 3.3 µM | IC50 (SK-N-SH; 24 hours): 15 µM | IC50 (SK-N-SH; 48 hours): 12.9 µM | IC50 (SK-N-SH; 72 hours): 11.6 µM | IC50 (NLF; 24 hours): 8.3 µM | IC50 (NLF; 48 hours): 6.2 µM | IC50 (NLF; 72 hours): 5.9 µM | interaction with XIAP by 1H-15N-HSQC NMR (XIAP): direct interaction between A4 and XIAP | weight loss or adverse effects ([5]; 10 mg/kg, twice-weekly dosing for up to 3 weeks): no substantial weight loss or adverse effects | weight, single animals ([5]; wk 7 d 1, 10 mg/kg i.p. twice weekly from week 4): 30 g and 28.3 g and 31.7 g

Several values for one entry are separate records, joined by “and”; a condition that tells them apart may be missing. Equal values may be shown once.
